Where “and” joins values, the source holds several entries; their conditions need not be identical. Identical values can stand only once.
What was measured:
[1] = target: DENV2 NS2B-NS3 protease (Dengue virus type 2, UniProt P14340); assay: DENV2 NS2B-NS3 protease inhibition assay (linked protease, fluorescent peptide substrate); settings: for reduction of the activity of DENV2 protease: compound at 100 μM; for Hill Coefficient of DENV2 protease inhibition curve: linked DENV2 NS2B-NS3 protease 150 nM, Abz substrate 100 μM
[2] = target: linked DENV2 NS2B-NS3 (Dengue virus type 2, UniProt P14340); assay: Protein thermal shift assay (PTSA), linked WT DENV2 NS2B-NS3; settings: Fig 10D

Row | Structure (SMILES) | reduction of the activity of DENV2 protease [1] | Hill Coefficient of DENV2 protease inhibition curve [1] | Hill Coefficient of DENV2 protease inhibition curve ([1]; listed as 135618) | Tm (WT) [2] [°C] | IC50 [1] [µM]
1 | O=C1C=CC(=NNc2ccc([N+](=O)[O-])cc2Cl)C=C1C(=O)Nc1cccc(Cl)c1 [NSC135618] | more than 80% | 0.73 | 0.7 | 43.09 | 
2 | O=C(Nc1ccc(Nc2ccncc2)cc1)c1ccc(Nc2ccnc3ccc([N+](=O)[O-])cc23)cc1 [NSC146771] | more than 80% | 2.03 and 2.0 |  |  | 4.8
3 | Cn1ccc(=Nc2ccc(NC(=O)c3ccc(N=c4ccn(C)c5ccc([N+](=O)[O-])cc45)cc3)cc2)cc1 [NSC260594] | more than 80% | 5.38 and 5.4 |  |  | 11.4

From publication PMC5462475, “A conformational switch high-throughput screening assay and allosteric inhibition of the flavivirus NS2B-NS3 protease” (PLoS Pathogens, 2017)
